Measurements published in US4190666A, “Anti-inflammatory 4,5-diarly-2-(substituted-thio)imidazoles and their corresponding sulfoxides and sulfones” (E. I. Du Pont de Nemours and Company, priority 1978, dated 1980).

System: established adjuvant-induced arthritis in rats
Assay: Established adjuvant-induced arthritis in rats (therapeutic, paw volume)
Format: in vivo, Charles River Lewis male rats
Conditions: oral, 7 daily doses, ED50% decrease from control paw volume, Tables I-III

COc1ccc(-c2nc(SC(F)(F)C(Br)Br)[nH]c2-c2ccc(OC)cc2)cc1
Adjuvant Arthritis (ED50%): 23 mg/kg
